Ab-95 light chain CDR variants: yeast mating affinities

Binding partner: SARS-CoV-2 spike HR2 peptide, sequence PDVDLGDISGINAS.

Parent: Ab-95, a human scFv built as VH, three GGGGS repeats, VL. Only the CDRs of the light chain vary.
VH: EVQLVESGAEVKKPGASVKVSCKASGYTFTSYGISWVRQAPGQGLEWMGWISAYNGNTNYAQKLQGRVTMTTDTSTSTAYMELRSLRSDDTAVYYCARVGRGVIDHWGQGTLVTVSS
VL: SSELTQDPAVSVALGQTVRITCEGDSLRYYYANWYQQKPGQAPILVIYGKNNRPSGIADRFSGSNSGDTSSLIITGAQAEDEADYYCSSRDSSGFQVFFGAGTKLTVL

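The parent was found by panning a naive human phage display library on the peptide. Variants in AAYL52 differ from the parent at up to three CDR positions; double and triple changes were sampled at random. The assay is AlphaSeq: two haploid yeast populations carry antibody and antigen on their surface. Pairs that bind mate more often; barcode pairs of the diploids are counted by sequencing. Read counts were normalised to the haploid input and turned into Kd by a linear fit to BCL2-family pairs of known affinity, for each replicate. There are three technical replicates.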

Positions count from residue 1 of the parent VL; Y31L puts L in place of Y. This list gathers variants with a substitution at S89 (VL, numbered from residue 1). Values are apparent Kd, the geometric mean of the replicates that gave a signal; lower means stronger binding. "no signal" marks a missing value. The strain was present, yet no cells mated with the target were sequenced in any replicate, which points to weak or no binding. For reference, the parent read 200 nM as the reference entry and 180 nM as a member of this library. Three control strains display no target. For library AAYL52, 28% of the pairings with them gave a signal, with a median of 8.2 µM and one signal in twenty below 800 nM, so weak values seen in few replicates may be background.

changes,apparent Kd,detected
Y31L S89T,130 nM,3/3
E23N P54K S89G,290 nM,2/3
N52H S89K G94C,no signal,0/3
Y31Q S88A S89C,14 nM,3/3
S26I K50N S89H,4.7 µM,2/3
G49T S88A S89P,77 µM,2/3
S26N A32W S89N,84 µM,1/3
G24H P54C S89Y,82 µM,1/3
Y31D G49R S89K,12 µM,3/3
Y29A Y31V S89N,no signal,0/3
D25A S89L R90I,62 nM,3/3
P54L S89K D91R,360 nM,3/3
N51D S89P F95M,550 nM,3/3
S26L S89A S93R,3.4 µM,3/3
G49A S89T,1.6 µM,2/3
S89T,450 nM,3/3
N33E P54D S89Q,12 µM,2/3
A32Q P54K S89E,42 µM,2/3
N33E S89M F98V,210 µM,1/3
S89D F95V V97H,2.5 µM,3/3
S89H S93T V97M,2.8 µM,3/3
E23M S89I G94Y,940 nM,3/3
R53F S89I G94N,no signal,0/3
S89L G94N,820 nM,3/3
D25I S88G S89V,300 nM,3/3
N51G S89L,1.2 µM,3/3
A32L G49E S89A,7.4 µM,1/3
Y29K S89D F95D,no signal,0/3
S88C S89V R90G,110 µM,2/3
S55C S89Q,29 µM,2/3
N52F S89I G94V,340 nM,3/3
N51R S89V S92E,9.9 µM,2/3
N33G S89N S93Q,no signal,0/3
Y29V Y30N S89A,3.2 nM,3/3
G24A P54M S89H,10 µM,2/3
D25K S26F S89L,40 µM,2/3
S89V D91A,660 nM,3/3
N52T P54R S89V,3.1 µM,3/3
S89Q,11 µM,2/3
Y31K N51E S89Y,40 nM,3/3
R28E P54G S89M,1.4 µM,2/3
P54R S89D F98G,no signal,0/3
A32P S88P S89A,no signal,0/3
E23C Y29L S89V,3.1 µM,3/3
A32L S89C F95P,16 µM,1/3
S26R S89T,3.6 µM,1/3
K50V R53T S89A,1.9 µM,3/3
N52Y S89V G94L,6.5 µM,2/3
N51I S89V G94N,8.1 µM,1/3
Y30Q N33V S89V,300 nM,3/3
K50T S89F R90I,15 µM,2/3
N33E S55C S89N,6.6 µM,1/3
E23V R28T S89W,4.2 µM,3/3
E23M Y31H S89C,20 nM,3/3
D25I Y31L S89M,12 µM,2/3
G24Y S89H V97C,7.9 µM,3/3
D25H N51A S89W,1.2 µM,1/3
L27Y S89H F98A,no signal,0/3
S26T S89T F95Y,120 nM,3/3
S89A D91F S92G,99 nM,3/3
S88R S89P R90S,220 nM,3/3
L27S N33I S89K,1.3 µM,2/3
Y30A A32Y S89I,2.8 µM,3/3
E23W D25R S89W,2.3 µM,3/3
K50W S89Y Q96W,740 nM,3/3
N33H S89P F95K,18 µM,2/3
S26W Y31G S89M,210 nM,3/3
S89K R90K F95W,6.4 µM,2/3
Y30C K50N S89F,480 nM,3/3

Source: Engelhart et al. 2022 (doi:10.1038/s41597-022-01779-4), MIT Lincoln Laboratory and A-Alpha Bio; data file from the FLAb repository.